This test has as its system Substance-P receptor (Meriones unguiculatus). Kind of test: Compound was evaluated for its ex vivo binding affinity towards substance P receptor measured 15 minutes post administration to gerbil. The following applies: Gerbillinae.

1 molecule from ChEMBL document CHEMBL1128642, “Discovery of an orally bioavailable NK1 receptor antagonist, (2S,3S)-(2-methoxy-5-tetrazol-1-ylbenzyl)(2-phenylpiperidin-3-yl)amine (GR203040), with potent antiemetic activity” (J Med Chem, 1995) can be followed below.

The molecule `COc1ccc(-n2cnnn2)cc1CN[C@H]1CCCN[C@H]1c1ccccc1` displayed an ED50 of 0.015 mg/kg.
